Measurements published in patent US7119208B2, “Anti-sickling agents” (Virginia Commonwealth University, priority 2003, dated 2006).
Like-named read-outs stand apart in the source and are kept apart here.

What was measured:
[1] = test system: SS cells; assay: Oxygen equilibrium studies with homozygous sickle red blood cells; assay type: cell-based, human; settings: 5 mM, FIG. 3
Description: SS cells were suspended in PBS to a final hematocrit of 10%. […] A 40 uL aliquot of this suspension was added to 4 ml Hemox buffer and subjected to oxygen equilibrium analysis (37° C.) using a Hemox-Analyzer (TCS Scientific Corp., Southampton, Pa.) (Asakura, 1979).

[2] = test system: rats; settings: cited from earlier work; for acute oral LD50: rats

Question: With O=Cc1ccc(CO)o1 [Compound 5HMF, 5-hydroxymethyl-2-furfuraldehyde] as the molecule, how does the “shift of oxygen equilibrium curve of SS cell suspensions” value [1] read?
Answer: The value was “significant left shift”.

Question: What about the LD50 ([2]; US EPA, 1992) of the same molecule?
Answer: Its LD50 is 2500 to 5000 mg/kg.

Question: And the “acute oral LD50” value ([2]; females)?
Answer: Its value is 2500 to 5000 mg/kg.

Question: And the “acute oral LD50” value ([2]; males)?
Answer: Its value is 2500 mg/kg.
